Biological target: human μ-opiate receptor (Homo sapiens, UniProt P35372)
Assay: μ-binding: [3H]-naloxone displacement, receptor membrane preparation of CHO-K1 cells
Details: [3H]-naloxone 1 nmol/l

The chains behind the UniProt entries cited, without tags or fusion partners.
UniProt P35372, whole entry, looked up: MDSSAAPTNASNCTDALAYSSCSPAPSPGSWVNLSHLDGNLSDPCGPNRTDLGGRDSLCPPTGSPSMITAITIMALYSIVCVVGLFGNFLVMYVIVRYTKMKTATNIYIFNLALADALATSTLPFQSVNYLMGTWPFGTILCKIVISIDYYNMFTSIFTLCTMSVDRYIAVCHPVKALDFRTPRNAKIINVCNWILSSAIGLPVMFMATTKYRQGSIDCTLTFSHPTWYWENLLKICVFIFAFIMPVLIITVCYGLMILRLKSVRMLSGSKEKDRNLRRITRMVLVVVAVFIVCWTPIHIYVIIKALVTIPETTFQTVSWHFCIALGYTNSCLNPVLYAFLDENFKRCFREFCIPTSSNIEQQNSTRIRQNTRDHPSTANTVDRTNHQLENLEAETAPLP

Compound	Ki (read-out: μ Ki, CHO-K1 membranes, Cheng-Prusoff conversion) [nM]	μ % inhibition [1 μM] (test substance 1 μM) [%]
CN(C)C1(c2ccccc2)CCC(C(O)C#Cc2cn(C(=O)OC(C)(C)C)c3ccccc23)CC1 (centres unmarked)	88	–
3-[3-tert-butoxycarbonyloxy-3-(4-dimethylamino-4-phenylcyclohexyl)-prop-1-ynyl]indole-1-carboxylic acid-tert-butyl ester, polar diastereoisomer	–	55

— patent US7507758B2, “4-alkyl-/4-alkenyl-/4-alkynyl methyl/-1-aryl-cyclohexylamine compounds” (dated 2009)
